# Measured affinities in a library of Ab-91 heavy chain variants

Target: peptide PDVDLGDISGINAS, taken from heptad repeat 2 (HR2) of SARS-CoV-2 spike.

The variants keep the light chain, the linker and the frameworks of Ab-91 (scFv order VL, a (GGGGS)3 linker, VH).
VL: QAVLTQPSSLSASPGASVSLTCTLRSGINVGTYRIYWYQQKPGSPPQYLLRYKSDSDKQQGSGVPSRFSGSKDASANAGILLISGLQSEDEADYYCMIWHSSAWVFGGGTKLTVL
VH: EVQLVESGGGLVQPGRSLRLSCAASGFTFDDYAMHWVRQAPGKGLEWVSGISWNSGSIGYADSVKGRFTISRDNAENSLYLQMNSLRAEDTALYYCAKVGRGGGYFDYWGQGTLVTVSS

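The starting antibody came from a phage panning campaign against this peptide. Library AAYL51 holds single substitutions and randomly drawn double and triple substitutions in the CDRs. In AlphaSeq, yeast of one mating type display the scFv and yeast of the other type display the target. Mating (16 h, 30 °C) was followed by selection of diploids and sequencing of their barcodes. Scores were corrected for input abundance and mapped to Kd with protein pairs of known affinity run in the same pool. Each pool was mated in three replicate cultures.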

Each variant is given by its three heavy chain CDRs, as the data file delimits them; those of the parent are GFTFDDYAMH, GISWNSGSIGYADSVK, VGRGGGYFDY.
Numbers give log10(Kd / nM), so 0 is 1 nM and 3 is 1 µM. Smaller is tighter.
The mean shown is taken over the replicates in which the pair was detected.
"no signal" marks a missing value. The strain was present, yet no cells mated with the target were sequenced in any replicate, which points to weak or no binding.
As a blank, each scFv also met three strains without target: over library AAYL51, 21% of these pairings were detected, typically at 4.54 and seldom below 3.26.

log10 Kd (nM), mean	seen in	CDR-H1	CDR-H2	CDR-H3
no signal	0/3	GFTFDDYAMH	GISWNSGSHGYADSVK	VGSGGMYFDY
0.90	3/3	GFTFDQYAMH	GISWNTGSIGYADSVK	VGRGGGHFDY
no signal	0/3	GHKFDDYAMH	GISWNHGSIGYADSVK	VGRGGGYFDY
5.31	2/3	GFTFDDYAMH	GISWNSGSIGYRDSEK	CGRGGGYFDY
no signal	0/3	GFTFDDYAMW	GISWSSGSIGYADSVK	VGRVGGYFDY
no signal	0/3	GFKFDDYAMH	GFSWNSGSIGYADSVK	VGRGGGYSDY
1.21	3/3	GFTMYDYAMH	GISWNSGSIGYADSVK	VGRGGGQFDY
2.28	3/3	GFTFDDYHMH	GISWNSGSIGYADSVK	KGRGGGYFDY
3.25	1/3	GITFDDYAMH	GISWNYGSIGYADSVK	VGRGGGYFDY
no signal	0/3	GFTFDDYAMH	GISWNSGSIGYADSVK	VGRWGGYFET
5.09	1/3	GFTFDDYSMH	GISWNSGSIGYSDSVK	VGRGGRYFDY
no signal	0/3	GFTFKDYAMH	GNSWNSGSIGYADSVK	VGRGGGYFDY
2.50	3/3	GFTFDDYAMH	GISWNTGSIGYADSVK	VGRGGRYFDH
5.47	2/3	GFTFDDYAMH	GQWWNSGSIGYADSVK	VGGGGGYFDY
no signal	0/3	GFQFDDYAMH	GISWNSTSIGYADWVK	VGRGGGYFDY
3.27	2/3	GFTFQDYAYH	GISSNSGSIGYADSVK	VGRGGGYFDY
3.93	1/3	GFTFDDYAMH	AISWNSGSIGYADSLK	VGRGGGYGDY
no signal	0/3	GFTDDDYANH	GISWNSGSIGYADSVK	VGRGGGYFDY
2.66	1/3	FVTFDDYAMH	GISWNSGSIGYADSVK	VGRGGEYFDY
5.12	2/3	GFTFDWYAMH	GISWNSGSIGAWDSVK	VGRGGGYFDY
no signal	0/3	GFTFDDYAMH	GISWNSGSIGYADSVK	VGRKSGYFDC
4.09	1/3	GFTFDDWAMH	GISWNSGSNGYADSVK	AGRGGGYFDY
4.04	1/3	GFTFDDYPMH	GISWNSGSIGYADSVV	VGRGGGYADY
4.02	1/3	GFTFDDYAGH	GISWNSGSIGYADSPK	VGRSGGYFDY
4.69	1/3	GFTYDDYAMH	GISWSSGSIGYADSVK	VGRGGGGFDY
3.87	2/3	GFTPDDYAMH	GISWNSPSIGYADSVK	VGRGKGYFDY
2.28	3/3	GFVMDDYAMH	GISWNSGSIGYADSVK	VGRGGGYFDY
4.08	2/3	GFTFDDYAMA	GISWNSGSIGYADSVK	VGRGGWYFDY
5.17	2/3	GFCFDDHAMH	GISWNSGSIGYADSVK	VPRGGGYFDY
no signal	0/3	GFTFDDYAMH	GISWRSGSIGYADCMK	VGRGGGYFDY
5.03	2/3	GFTPDDYAMH	GTSWNFGSIGYADSVK	VGRGGGYFDY
no signal	0/3	GFTFDDDAMH	GISWNSGSIGYADSVK	DGRGGGYFDW
no signal	0/3	GFTFDDYAMH	GISWNSGLIGYADSVK	KGRGIGYFDY
no signal	0/3	GFTFDDSASH	GISWNSGSIGYADSVK	VGRGGDYFDY
5.18	1/3	CFTFDDYAEH	GISWNSGSIGYADSVK	IGRGGGYFDY
4.62	2/3	GFTFDDYAMH	GISWNSGKIGYAFSVK	VGRGGGCFDY
5.23	1/3	GFTFDDYAMH	GISWNYGSIGYADSVK	VGYRGGYFDY
2.05	3/3	GFTFDDYAMH	GISWNSGSIGYADQVK	VGRGGGIFDY
no signal	0/3	GFTFDHYAMH	GISWNDGSIGYADSVK	DGRGGGYFDY
5.21	1/3	GCVFDDYAMC	GISWNSGSIGYADSVK	VGRGGGYFDY
no signal	0/3	GFTFDDYAMH	GIIWNSGSIGYADSVK	MGRGGGYFDY
4.73	1/3	GFTFDDYAMH	GISWNSGSIGYWDSVK	VGRGGGYFYV
3.21	2/3	GFYFIDYAMH	GISFNSGSIGYADSVK	VGRGGGYFDY
4.02	1/3	GFTFDDYAWD	GISWNSGSIGYADSVQ	VGRGGGYFDY
no signal	0/3	GFTFDDMAMK	GISWNSGSIGYADSVK	VGRGSGYFDY
3.45	2/3	GFTFDDYAMH	GISWNSGSIGYADSVK	VAWGGKYFDY
no signal	0/3	IFTFDDYAMH	TISWNSCSIGYADSVK	VGRGGGYFDY
no signal	0/3	GFTFDDYFMH	GISWNSGSIRYADSVK	HGRGGGYFDY
no signal	0/3	GFTFDDYAMH	GISWKIGSIGYADSVK	VGRGSGYFDY
4.79	2/3	GFTFDDYAMH	GISQNSGPIGYADSVK	IGRGGGYFDY
no signal	0/3	GITFDDYAMY	GISWNSGSIGYKDSVK	VGRGGGYFDY
4.57	2/3	GFTFYDYAMH	GISWNSGSIGYADSVK	VGRGGGYFGY
no signal	0/3	PFSFDDYAMH	GFSWNSGSIGYADSVK	VGRGGGYFDY
3.05	1/3	GFTFDDYAMH	GISWNCGSSGYADSVK	VGRYGGYFDY
no signal	0/3	GFTFVDYAMH	GISWNSGSHGYADSVK	VGGGGGYFDY
3.65	2/3	GFTFDDYAGH	GISWNSGSIGYADSVK	VGRGGRYFDY
5.14	3/3	HFTKDDYAMH	GISWNSGGIGYADSVK	VGRGGGYFDY
3.43	1/3	GFTFDDYANQ	GISWNSASIGYADSVK	VGRGGGYFDY
no signal	0/3	NSTFDDYAMH	GISWNSGSIGYADRVK	VGRGGGYFDY
4.77	2/3	GFTQDDYAMH	GISWNSPSIGYADSVK	VDRGGGYFDY
no signal	0/3	QFTYDDYAMH	GISWNSGYIGYADSVK	VGRGGGYFDY
no signal	0/3	GFTVDDYASH	GISWNSGSCGYADSVK	VGRGGGYFDY
0.64	3/3	GFTFDNYAMH	GISWNSGQHGYADSVK	VGRGGGYFDY
4.53	3/3	GFTFDDVAMH	GISWNSFSIGYADSVW	VGRGGGYFDY
no signal	0/3	GFTFDDYAMH	GISWCSGSIGQAISVK	VGRGGGYFDY
0.28	3/3	GFTFDHYAMH	GISWNSGSKGYADSVK	VGRGGGYFYY
3.09	2/3	GPTFDDYAMH	GISWNSHSIGYADVVK	VGRGGGYFDY
5.67	2/3	GDTFDDYAMH	GWSWNSGSIPYADSVK	VGRGGGYFDY
3.48	3/3	GFTSDRYAMH	GISWNSGSIGYADSVK	VGRCGGYFDY
4.09	1/3	GFTFDDKCMH	GISANSGSIGYADSVK	VGRGGGYFDY
no signal	0/3	GFTFDDYAYH	GISWNSGIIGYADSVK	GGRGGGYFDY
3.34	3/3	GFTFDDYAMH	GISWNSGSIGYADSVK	VGRGGGFFDP
no signal	0/3	GFTFDDYAMH	GISWNSGSIGPADSVK	VGRGGKYFDD
no signal	0/3	GFPFDDYIMH	GISWNSGSIGYADSVK	VGRGGRYFDY
no signal	0/3	GFTFDDYAMH	GDSWNSGSIGYADSVK	VGRGNGYFDV

Excerpt, the first 11 entries:

| CDR-H1 | CDR-H2 | CDR-H3 | log10 Kd (nM), mean | seen in |
|---|---|---|---|---|
| GFTFDDYAMH | GISWNSGSHGYADSVK | VGSGGMYFDY | no signal | 0/3 |
| GFTFDQYAMH | GISWNTGSIGYADSVK | VGRGGGHFDY | 0.90 | 3/3 |
| GHKFDDYAMH | GISWNHGSIGYADSVK | VGRGGGYFDY | no signal | 0/3 |
| GFTFDDYAMH | GISWNSGSIGYRDSEK | CGRGGGYFDY | 5.31 | 2/3 |
| GFTFDDYAMW | GISWSSGSIGYADSVK | VGRVGGYFDY | no signal | 0/3 |
| GFKFDDYAMH | GFSWNSGSIGYADSVK | VGRGGGYSDY | no signal | 0/3 |
| GFTMYDYAMH | GISWNSGSIGYADSVK | VGRGGGQFDY | 1.21 | 3/3 |
| GFTFDDYHMH | GISWNSGSIGYADSVK | KGRGGGYFDY | 2.28 | 3/3 |
| GITFDDYAMH | GISWNYGSIGYADSVK | VGRGGGYFDY | 3.25 | 1/3 |
| GFTFDDYAMH | GISWNSGSIGYADSVK | VGRWGGYFET | no signal | 0/3 |
| GFTFDDYSMH | GISWNSGSIGYSDSVK | VGRGGRYFDY | 5.09 | 1/3 |

Source: Engelhart et al. 2022 (doi:10.1038/s41597-022-01779-4), MIT Lincoln Laboratory and A-Alpha Bio; data file from the FLAb repository.